Experimental findings from patent US5990078A, “Means of increasing estrogen receptor levels in neural tissue” (The Trustees of Columbia University in the City of New York, priority 1996, dated 1999) are described below.

Entries after “also recorded” stand apart in the source; their conditions may differ.

The test deals with trkA mRNA. As to the kind of experiment: Northern blot analysis of trkA mRNA in NGF-treated PC12 cells.

`C[C@]12CC[C@@H]3c4ccc(O)cc4CC[C@H]3[C@@H]1CC[C@@H]2O` [estradiol, 17-β estradiol]: the “Effect on trkA mRNA” value (3 days of estrogen treatment) was “very small effect; also recorded: did not visibly alter”. The “Increase in trkA mRNA (normalized to 18S RNA)” value (7 days of estrogen treatment) was “two-fold; also recorded: twofold”.
